Experimental data from PubChem BioAssay AID504490 (NMMLSC, 2011).
The entries are a selection whose mix differs from that of the whole data set. The source made the active and inactive calls.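 The calls were made as follows: active = inhibition above a set limit, near 3 SD of compounds lacking own fluorescence (cut at about 54% in these data); inactive = the rest.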

Each compound was assayed on beta-arrestin 1 C-terminal peptide binding to AP2 beta2-adaptin appendage (human) (assay: blockers of arrestin peptide association with AP2 adaptin – biochemical, GPCR trafficking, flow cytometry, primary screen (AID 504490;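 also: plate controls were DMSO wells for no effect and 5 µM unlabelled arrestin peptide for full effect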)). Conditions: FITC-arrestin peptide / GST-AP2 beads, at 10 µM, hits give high values, AP2 beta2 appendage carries R879A mutation.
In the case of `CCC(=O)N(c1ccccc1)C1(COC)CCN(CCc2cccs2)CC1`, the inhibition is reported as inactive: 30.7%.
`CCC(=O)N(c1ccccc1)C1(COC)CCN(CCn2nnn(CC)c2=O)CC1` was tested, and the inhibition was inactive: 1.4%.
